Laboratory results published in patent US12662479B2 (Foghorn Therapeutics Inc., priority 2020, dated 2026).

Chains of the proteins cited; added tags and fusions are not shown.
UniProt P51532, whole entry: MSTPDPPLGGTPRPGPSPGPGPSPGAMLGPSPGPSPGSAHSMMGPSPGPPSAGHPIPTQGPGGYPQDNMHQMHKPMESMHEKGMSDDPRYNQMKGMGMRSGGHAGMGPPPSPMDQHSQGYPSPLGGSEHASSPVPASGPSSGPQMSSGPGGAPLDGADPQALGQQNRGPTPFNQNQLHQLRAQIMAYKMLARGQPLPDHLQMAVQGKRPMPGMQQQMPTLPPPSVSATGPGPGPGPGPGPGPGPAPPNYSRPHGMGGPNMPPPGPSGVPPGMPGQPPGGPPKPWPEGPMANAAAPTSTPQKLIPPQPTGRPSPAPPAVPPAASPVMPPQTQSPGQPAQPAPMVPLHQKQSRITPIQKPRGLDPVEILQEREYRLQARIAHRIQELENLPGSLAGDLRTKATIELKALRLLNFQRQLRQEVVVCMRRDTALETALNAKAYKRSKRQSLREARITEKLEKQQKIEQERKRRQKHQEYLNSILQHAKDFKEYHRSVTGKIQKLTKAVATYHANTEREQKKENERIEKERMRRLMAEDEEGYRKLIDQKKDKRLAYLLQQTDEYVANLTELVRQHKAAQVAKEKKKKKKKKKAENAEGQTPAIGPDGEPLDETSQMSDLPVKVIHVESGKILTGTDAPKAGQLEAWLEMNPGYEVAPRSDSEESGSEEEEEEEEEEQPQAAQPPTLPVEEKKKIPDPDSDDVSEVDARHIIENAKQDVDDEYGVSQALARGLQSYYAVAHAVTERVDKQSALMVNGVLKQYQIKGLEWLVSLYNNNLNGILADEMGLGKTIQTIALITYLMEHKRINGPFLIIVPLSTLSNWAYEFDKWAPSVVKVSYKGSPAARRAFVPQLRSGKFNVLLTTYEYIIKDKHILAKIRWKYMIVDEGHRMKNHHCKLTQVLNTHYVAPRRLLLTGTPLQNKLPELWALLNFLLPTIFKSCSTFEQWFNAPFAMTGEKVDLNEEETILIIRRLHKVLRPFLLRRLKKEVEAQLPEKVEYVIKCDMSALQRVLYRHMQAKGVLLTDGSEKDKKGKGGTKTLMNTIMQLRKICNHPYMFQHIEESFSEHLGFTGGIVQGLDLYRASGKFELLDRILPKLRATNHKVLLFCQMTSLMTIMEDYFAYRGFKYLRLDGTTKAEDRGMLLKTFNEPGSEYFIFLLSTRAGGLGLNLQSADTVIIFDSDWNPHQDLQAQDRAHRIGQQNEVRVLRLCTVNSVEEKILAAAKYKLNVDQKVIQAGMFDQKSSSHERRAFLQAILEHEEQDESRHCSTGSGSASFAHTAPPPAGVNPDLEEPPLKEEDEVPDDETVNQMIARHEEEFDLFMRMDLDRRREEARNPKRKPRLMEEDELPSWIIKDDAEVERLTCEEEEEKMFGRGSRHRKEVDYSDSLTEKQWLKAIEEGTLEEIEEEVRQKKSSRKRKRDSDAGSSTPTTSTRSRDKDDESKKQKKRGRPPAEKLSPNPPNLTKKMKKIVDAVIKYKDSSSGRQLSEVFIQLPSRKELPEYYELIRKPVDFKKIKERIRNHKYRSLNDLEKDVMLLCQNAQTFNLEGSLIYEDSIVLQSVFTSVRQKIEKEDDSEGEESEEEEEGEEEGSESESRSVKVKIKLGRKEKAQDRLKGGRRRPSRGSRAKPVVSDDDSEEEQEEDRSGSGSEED

Biological target: T1, HiBit-BRG1 fusion protein (Homo sapiens, UniProt P51532)
T1 construct: expressed in transfected cells
Test: HiBiT-BRG1 cell-based degradation assay (Nano-Glo HiBiT Lytic Detection, 24 h)
Parameters: dose or concentration left out as unconfirmed
Settings: HeLa, read-out: BRG1 HiBit Degradation Maximum measured
Procedure: Procedure: A stable HeLa cell line expressing HiBiT-BRM was generated. On day 0, 5000 cells were seeded in 40 μL of media into each well of 384-well cell culture plates. […] Nano-Glo HiBiT Lytic Detection System (Promega N3050) reagent was freshly prepared and 20 ul was added to each well. Upon addition of this LgBit-containing reagent, the HiBiT and LgBiT proteins associate to form the luminescent NanoBiT luciferase. The plates were shaken for 10 minutes at room temperature and the bioluminescence read using an EnVision plate reader (PerkinElmer).
For measurement of BRG1 degradation, a stable HeLa cell line expressing HiBit-BRG1 and LgBit was generated. The same protocol as above was then followed.
The degradation % was calculated using the following formula: % degradation=100%−100%×(LumSample−LumLC)/(LumHC−LumLC). DMSO treated cells are employed as High Control (HC) and 2 μM of a known BRM/BRG1 degrader standard treated cells are employed as Low Control (LC).

Row | SMILES | Dmax
1 | Cc1ncsc1-c1ccc(CNC(=O)[C@@H]2C[C@@H](O)CN2C(=O)[C@@H](NC(=O)CCN2CC(C(=O)NCc3cccc(-c4cccc(-c5csc(NC(=O)CNC(=O)c6ccn(S(C)(=O)=O)c6)n5)c4)c3)C2)C(C)(C)C)cc1 [Compound 154, (2S,4R)-4-hydroxy-1-[(2S)-2-[3-[3-([[3-(2-[2-[(1-methanesulfonylpyrrol-3-yl)formamido]acetamido]-1,3-thiazol-4-yl)-[1,1-biphenyl]-3-yl]methyl]carbamoyl)azetidin-1-yl]propanamido]-3,3-dimethylbutanoyl]-N-[[4-(4-methyl-1,3-thiazol-5-yl)phenyl]methyl]pyrrolidine-2-carboxamide formate] | < 50%
2 | Cc1ncsc1-c1ccc(CNC(=O)[C@@H]2C[C@@H](O)CN2C(=O)[C@@H](NC(=O)CCN2CCC(C(=O)NCc3cccc(-c4cccc(-c5csc(NC(=O)CNC(=O)c6ccn(S(C)(=O)=O)c6)n5)c4)c3)CC2)C(C)(C)C)cc1 [Compound 155, 1-(2-[[(2S)-1-[(2S,4R)-4-hydroxy-2-([[4-(4-methyl-1,3-thiazol-5-yl)phenyl]methyl]carbamoyl)pyrrolidin-1-yl]-3,3-dimethyl-1-oxobutan-2-yl]carbamoyl]ethyl)-N-[[3-(2-[2-[(1-methanesulfonylpyrrol-3-yl)formamido]acetamido]-1,3-thiazol-4-yl)-[1,1-biphenyl]-3-yl]methyl]piperidine-4-carboxamide formate] | < 50%
3 | CS(=O)(=O)n1ccc(C(=O)N[C@@H](COCc2ccc(C(=O)N3CC(COc4ccc5c(c4)C(=O)N(C4CCC(=O)NC4=O)C5=O)C3)cc2)C(=O)Nc2nc(-c3ccccc3)cs2)c1 (stereo partly drawn) [Compound 198, (2S)-3-([4-[3-([[2-(2,6-dioxopiperidin-3-yl)-1,3-dioxoisoindol-5-yl]oxy]methyl)azetidine-1-carbonyl]phenyl]methoxy)-2-[(1-methanesulfonylpyrrol-3-yl)formamido]-N-(4-phenyl-1,3-thiazol-2-yl)propanamide] | < 50%

Where a name gives a salt, the structure may show the parent alone.
